Measured values published in patent publication US20260384418A1, “1-(SULFONYL)-N-PHENYLPYRROLIDINE-2-CARBOXAMIDES DERIVATIVES AND USE THEREOF” (published 2026).

Tests used:
[1] = test system: cancer; settings: reference compounds used as calcineurin inhibitors; cited from earlier work
[2] = test system: D283; assay: Proliferation assay, D283 medulloblastoma cells (direct cell counting); settings: inhibition of proliferation, 5 days of treatment, concentration not given
Description: (§1) Compound INK-150.46 (or SLB-605) was assayed against several cancer cell lines in proliferation assays.
(§2) D283 cells assay was carried in 12-well plates. Cells were seeded in low density and incubated during 24 hours in EMEM medium. Suspended cells of each well were harvested by centrifugation of the recovered medium and returned to the wells with the correspondent treatment. After 5 days of treatment, all cells were recovered and directly counted using EVE™ Automated Cell Counter (NanoEntek).

[3] = test system: NFATc activation in HEK 293T cells; assay: NFATc activation, 3×NFAT-luc dual-luciferase reporter assay in HEK 293T cells; settings: ionomycin/PMA/CaCl2 stimulation, at least at 100, 50 and 20 μM, FIG. 1
Description: To determine the effect of compounds of formula (I) on NFATc activation, HEK 293T cells were transfected with 3×NFAT-luc reporter gene and Renilla-luc plasmid as control of gene transfection. After 24 hours, to activate the cellular CN-NFATc signaling pathway, cells were stimulated with ionomycin (lo), PMA and CaCl2 for 4 h to raise intracellular concentration of calcium. As positive control of inhibition of CN activity, cells were treated with 1 μM of CsA 30 min prior to lo/PMA/CaCl2 stimulation. Then, cells were treated with compounds of formula (I) at several concentrations for 2 hours and light units analyzed following manufacture's protocol of the dual-luciferase reporter assay system (FIG. 1, Functional effect of pair related structure compounds on NFATc activation).

[4] = test system: U2OS; assay: Proliferation assay, U2OS osteosarcoma cells; settings: inhibition of proliferation, 5 days, Methyl violet staining; concentration not given
Description: as §1
(§3) All measurements except for D283 cells were taken using an in vitro test to measure cell growth based on Methyl violet staining after 5 days of incubation with the aforementioned drug or control vehicle (DMSO). The procedure was carried out in a 96-well plate. After 1 wash with phosphate-buffered saline (PBS), cells were stained for 20 minutes at room temperature with Methyl violet (0.5% w/v in water). After 5 washes with PBS, and the addition of acetic acid (10% in water), plates were read in a spectrophotometer at 590 nm. All conditions were tested in 6 independent wells and results expressed as a mean of all replicates.

[5] = test system: several cancer cell lines; assay: Proliferation assays against several cancer cell lines (overall result); settings: assayed lines RD, RH4, SKNBE2, SHSY5Y, U2OS, D283
Description: as §1, §3, §2

## C=CC[C@@H]1/C=C(\C)C[C@H](C)C[C@H](OC)[C@H]2O[C@@](O)(C(=O)C(=O)N3CCCC[C@H]3C(=O)O[C@H](/C(C)=C/[C@@H]3CC[C@@H](O)[C@H](OC)C3)[C@H](C)[C@@H](O)CC1=O)[C@H](C)C[C@@H]2OC
[1]
  anti-cancer activity of reference compounds (in words): does not show anti-cancer activity
  suspected tumorigenicity of reference compounds (in words): suspected of causing tumors

## C=C/C=C/C[C@@H](C)[C@@H](O)[C@H]1C(=O)N[C@@H](CC)C(=O)N(C)CC(=O)N(C)[C@@H](CC(C)C)C(=O)N[C@@H](C(C)C)C(=O)N(C)[C@@H](CC(C)C)C(=O)N[C@@H](C)C(=O)N[C@H](C)C(=O)N(C)[C@@H](CC(C)C)C(=O)N(C)[C@@H](CC(C)C)C(=O)N(C)[C@@H](C(C)C)C(=O)N1C
[1]
  anti-cancer activity of reference compounds (in words): does not show anti-cancer activity
  suspected tumorigenicity of reference compounds (in words): suspected of causing tumors

## Cc1c(Cl)cc(F)cc1S(=O)(=O)N1CCCC1C(=O)N(Cn1nnc2ccccc21)c1ccccc1 (centres unmarked)
[2]
  Effect over D283: 33.3%
[3]
  inhibition of NFATc activation: strongly inhibits NFATc activation
[4]
  Effect over U2OS: 52.0%
[5]
  inhibition of cellular proliferation (in words): good inhibition of cellular proliferation
